Test results published in publication PMC6923863 (BMC Pharmacology & Toxicology, 2019).

Amino acid sequences for entries named in this document (tags omitted).
UniProt P23975, whole entry: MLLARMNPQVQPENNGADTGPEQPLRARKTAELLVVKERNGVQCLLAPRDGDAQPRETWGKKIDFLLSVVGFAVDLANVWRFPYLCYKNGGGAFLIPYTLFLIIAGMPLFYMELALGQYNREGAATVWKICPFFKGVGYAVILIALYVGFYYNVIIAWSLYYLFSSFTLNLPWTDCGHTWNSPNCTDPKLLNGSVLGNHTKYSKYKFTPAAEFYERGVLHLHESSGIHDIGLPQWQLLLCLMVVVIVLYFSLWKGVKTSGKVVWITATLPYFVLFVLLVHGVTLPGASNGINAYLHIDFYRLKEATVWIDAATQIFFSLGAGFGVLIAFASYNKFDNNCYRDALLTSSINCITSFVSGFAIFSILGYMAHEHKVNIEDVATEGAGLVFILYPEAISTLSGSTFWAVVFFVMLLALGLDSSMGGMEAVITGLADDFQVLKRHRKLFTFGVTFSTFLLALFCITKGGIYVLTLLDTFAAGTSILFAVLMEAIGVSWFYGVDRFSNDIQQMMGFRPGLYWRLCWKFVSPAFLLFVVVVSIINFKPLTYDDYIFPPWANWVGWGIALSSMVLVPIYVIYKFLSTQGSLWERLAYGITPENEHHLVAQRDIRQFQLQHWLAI
UniProt P35372, whole entry: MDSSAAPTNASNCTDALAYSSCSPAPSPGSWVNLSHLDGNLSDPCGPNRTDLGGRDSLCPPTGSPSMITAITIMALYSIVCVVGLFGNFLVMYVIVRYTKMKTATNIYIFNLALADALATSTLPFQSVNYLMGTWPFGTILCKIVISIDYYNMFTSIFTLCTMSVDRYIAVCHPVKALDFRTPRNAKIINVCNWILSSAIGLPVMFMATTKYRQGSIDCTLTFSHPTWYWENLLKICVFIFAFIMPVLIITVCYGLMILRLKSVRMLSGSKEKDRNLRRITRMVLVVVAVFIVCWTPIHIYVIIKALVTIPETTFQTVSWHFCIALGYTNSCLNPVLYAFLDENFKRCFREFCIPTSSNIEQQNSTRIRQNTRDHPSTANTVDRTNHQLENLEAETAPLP

Assays:
Assay in all cases: biochemical
[1] = molecular target: Norepinephrine Uptake Site (Homo sapiens, UniProt P23975)
μ Opiate Receptor = μ Opiate Receptor (Homo sapiens, UniProt P35372)
δ1 Opiate Receptor = δ1 Opiate Receptor (Homo sapiens, UniProt P41143)
[2] = read-out: Percent Inhibition at 10 μM

For `CNC1(c2ccccc2Cl)CCCCC1=O` (stereo not drawn) [Ketamine], the IC50 [1] was over 10 µM, the inhibition at 10 µM [1, 2] was 23% and the IC50 (μ Opiate Receptor) was over 10 µM. The inhibition at 10 µM (μ Opiate Receptor; [2]) was under 15%, the IC50 (δ1 Opiate Receptor) was over 10 µM and the inhibition at 10 µM (δ1 Opiate Receptor; [2]) was under 15%.
